Results taken from ChEMBL document CHEMBL5136991, “Dual-target inhibitors of poly (ADP-ribose) polymerase-1 for cancer therapy: Advances, challenges, and opportunities” (Eur J Med Chem, 2022).

Protein sequences, listed by entry. Tags and fused reporters are not part of them.
UniProt P09874, whole entry: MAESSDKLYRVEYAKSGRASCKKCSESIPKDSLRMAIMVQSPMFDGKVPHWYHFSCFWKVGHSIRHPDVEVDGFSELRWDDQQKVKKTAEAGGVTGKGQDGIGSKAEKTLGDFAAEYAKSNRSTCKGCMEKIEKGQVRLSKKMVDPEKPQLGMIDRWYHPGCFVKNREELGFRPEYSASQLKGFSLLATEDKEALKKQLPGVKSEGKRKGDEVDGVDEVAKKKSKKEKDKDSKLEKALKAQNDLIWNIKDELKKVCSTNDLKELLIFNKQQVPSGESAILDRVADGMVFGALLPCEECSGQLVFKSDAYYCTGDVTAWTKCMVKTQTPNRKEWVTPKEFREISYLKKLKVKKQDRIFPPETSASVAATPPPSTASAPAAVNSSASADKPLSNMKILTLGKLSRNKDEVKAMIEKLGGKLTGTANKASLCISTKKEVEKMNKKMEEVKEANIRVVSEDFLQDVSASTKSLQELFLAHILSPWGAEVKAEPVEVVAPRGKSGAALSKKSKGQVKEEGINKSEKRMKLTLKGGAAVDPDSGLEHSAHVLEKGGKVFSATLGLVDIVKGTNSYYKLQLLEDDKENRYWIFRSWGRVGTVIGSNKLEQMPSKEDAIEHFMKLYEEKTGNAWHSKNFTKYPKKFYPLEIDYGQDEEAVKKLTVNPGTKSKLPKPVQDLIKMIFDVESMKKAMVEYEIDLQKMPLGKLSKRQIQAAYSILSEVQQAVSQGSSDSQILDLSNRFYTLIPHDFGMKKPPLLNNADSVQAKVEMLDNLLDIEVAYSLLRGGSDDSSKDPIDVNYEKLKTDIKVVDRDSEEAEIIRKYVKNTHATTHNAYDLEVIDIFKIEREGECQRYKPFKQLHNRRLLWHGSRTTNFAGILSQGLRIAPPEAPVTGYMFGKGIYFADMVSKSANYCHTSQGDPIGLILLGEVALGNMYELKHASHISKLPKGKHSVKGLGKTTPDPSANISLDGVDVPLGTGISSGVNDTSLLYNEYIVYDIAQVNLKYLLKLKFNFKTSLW

Target: Poly [ADP-ribose] polymerase 1 (Homo sapiens, UniProt P09874)
Test: Inhibition of PARP1 (unknown origin)

IC50: 100 nM
Compound: O=C(COc1cccc2c(=O)[nH]ccc12)c1ccccc1
